Each block holds one molecule with its values, some of them ahead of it.
Key:
purified porcine DP IV [1] = molecular target: T1, purified porcine DP IV (Sus scrofa, UniProt P22411); assay: Determination of IC50-values, Gly-Pro-pNA cleavage by DP IV; format: biochemical; details: Gly-Pro-pNA 0.4 mM, HEPES pH 7.6, 30° C.
Protocol: (§1) 100 μl inhibitor stock solution were mixed with 100 μl buffer (HEPES pH 7.6) and 50 μl substrate (Gly-Pro-pNA, final concentration 0.4 mM) and preincubated at 30° C. Reaction was started by addition of 20 μl purified porcine DP IV. Formation of the product pNA was measured at 405 nm over 10 min using the HTS 7000 Plus plate reader (Perkin Elmer) and slopes were calculated. The final inhibitor concentrations ranged between 1 mM and 30 nM.
For calculation of IC50-values GraFit 4.0.13 (Erithacus Software) was used.

Amino acid sequences for entries named in this document (tags omitted). A change or cut given only in a name is not applied to a line headed by its entry. Residues count along the entry.
UniProt P22411: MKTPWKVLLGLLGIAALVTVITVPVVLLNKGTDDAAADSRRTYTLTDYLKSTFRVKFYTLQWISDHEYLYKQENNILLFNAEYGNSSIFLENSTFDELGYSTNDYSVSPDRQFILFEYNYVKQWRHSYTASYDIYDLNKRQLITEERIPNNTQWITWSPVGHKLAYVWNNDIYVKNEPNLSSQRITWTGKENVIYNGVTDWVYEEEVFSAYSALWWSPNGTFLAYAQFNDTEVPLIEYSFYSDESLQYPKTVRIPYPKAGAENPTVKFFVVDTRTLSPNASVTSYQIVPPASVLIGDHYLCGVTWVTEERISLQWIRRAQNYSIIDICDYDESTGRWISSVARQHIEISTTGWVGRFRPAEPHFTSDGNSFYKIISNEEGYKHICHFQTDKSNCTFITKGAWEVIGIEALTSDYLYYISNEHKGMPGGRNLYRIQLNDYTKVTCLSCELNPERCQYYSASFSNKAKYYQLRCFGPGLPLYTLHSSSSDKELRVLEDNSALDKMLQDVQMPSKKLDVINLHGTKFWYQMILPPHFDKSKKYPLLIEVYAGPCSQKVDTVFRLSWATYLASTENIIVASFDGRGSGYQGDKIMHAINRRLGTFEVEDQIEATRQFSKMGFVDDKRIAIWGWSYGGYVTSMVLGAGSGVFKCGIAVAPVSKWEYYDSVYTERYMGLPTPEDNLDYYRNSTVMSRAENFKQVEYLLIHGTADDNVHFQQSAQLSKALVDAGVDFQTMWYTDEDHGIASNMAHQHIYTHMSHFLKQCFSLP
UniProt P14740, 37-767 limits assumed: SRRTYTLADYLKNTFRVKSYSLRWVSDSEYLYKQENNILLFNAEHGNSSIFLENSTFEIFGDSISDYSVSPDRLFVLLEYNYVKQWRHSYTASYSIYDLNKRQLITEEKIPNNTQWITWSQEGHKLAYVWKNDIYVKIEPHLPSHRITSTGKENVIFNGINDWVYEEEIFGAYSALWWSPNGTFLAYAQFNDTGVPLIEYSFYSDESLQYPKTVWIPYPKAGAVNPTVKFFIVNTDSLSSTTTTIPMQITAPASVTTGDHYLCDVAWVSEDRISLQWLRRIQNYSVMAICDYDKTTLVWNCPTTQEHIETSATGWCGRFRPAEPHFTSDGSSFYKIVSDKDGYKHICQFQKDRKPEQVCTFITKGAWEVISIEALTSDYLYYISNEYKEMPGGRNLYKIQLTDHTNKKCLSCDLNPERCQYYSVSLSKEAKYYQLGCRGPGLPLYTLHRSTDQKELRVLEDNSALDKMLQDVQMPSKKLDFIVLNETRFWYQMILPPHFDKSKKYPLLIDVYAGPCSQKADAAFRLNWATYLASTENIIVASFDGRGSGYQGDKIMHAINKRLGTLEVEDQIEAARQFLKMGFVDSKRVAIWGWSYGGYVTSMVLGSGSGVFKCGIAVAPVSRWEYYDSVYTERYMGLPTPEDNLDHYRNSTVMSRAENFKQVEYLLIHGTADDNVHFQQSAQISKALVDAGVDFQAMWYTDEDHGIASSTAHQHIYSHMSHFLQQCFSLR

purified porcine DP IV [2] = molecular target: T1, purified porcine DP IV; assay: Determination of Ki-values, Gly-Pro-pNA cleavage by DP IV; format: biochemical; details: Gly-Pro-pNA 0.05-0.4 mM
Protocol: as §1
Calculations were performed using the GraFit Software.

plasma DP IV = molecular target: T2, plasma DP IV (Rattus norvegicus, UniProt P14740); assay: Plasma DP IV activity after intravasal and oral administration in Wistar rats; format: in vivo; details: for DP IV-AUC0-20 min / lowest plasma DP IV activity: NS
T2 construct: The assay mixture consisted of 80 μl reagent and 20 μl plasma; from tissue; host or cells: plasma of Wistar rats
Protocol: Rats with intact catheter function were given the test substances intravasal (intraarterial) or oral, respectively, in random order (N=3 Wistar rats in each group). As positive control, […]. isoleucine thiazolidine*fumarate were administered intravasal.
After overnight fasting, 100 μl samples of heparinized arterial blood were collected at −30, −5, and 0 min into ice-cooled Eppendorf tubes (see below). The test substances were dissolved freshly in 1.0 ml saline (0.154 mol/l) and were given at 0 min either oral via a feeding tube ([…], 75 mm; Fine Science Tools, Heidelberg, Germany) or intravasal. For the intravasal route, the catheter was immediately flushed with 30 μl saline and an additional 1 ml of saline was given orally via the feeding tube.
Arterial blood samples were taken thereafter at 5, 10 (only in a limited number of experiments), 20, 40, 60 and 120 min from the carotid catheter of the conscious unrestrained rats and were always given into ice cooled Eppendorf tubes (Eppendorf-Netheler-Hinz, Hamburg, Germany) filled with 10 μl 1 M citrate buffer pH 3.0 for prevention of further hydrolysis of tripeptides by plasma DP IV activity. Eppendorf tubes were centrifuged immediately (12000 rpm for 2 min, Hettich Zentrifuge EBA 12, Tuttlingen; Germany): The plasma fractions were store on ice until analysis or were deeply frozen at −20 ° C. until analysis.
Plasma DP IV activity: The assay mixture consisted of 80 μl reagent and 20 μl plasma. Kinetic measurements of the formation of the yellow product 4-nitroaniline were performed at 390 nm for 1 min at 30° C. after 2 min pre-incubation at the same temperature. The activity was expressed as arbitrary units [AU] and DP IV activity [mU/ml].
The absolute values of plasma DP IV activity, the relative change of plasma DP IV activity and the time and extent of maximal inhibition were calculated. Data presentation included the presentation of area under the curve (AUC), which was used for evaluation of extent of inhibition of plasma DP IV activity during the two hours of observation. AUC was calculated using the trapezoidal rule.
To compare relative changes of parameters under the conditions of different initial values of DP IV activity an uniform standardised mean (values) was set up at the beginning of the test (see Figures and Tables).
Statistical evaluations were performed with Microsoft Excel® 97. All variables are presented as mean and standard deviation (SD). Treatment groups were compared by Student's t-test, within-group changes by paired t-test. Two-tailed values of p<0.05 were considered significant.

PEPT1 [3] = molecular target: T3, PEPT1 (Homo sapiens, UniProt P46059); assay: Competition assay with transgenic yeast cells, displacement of radiolabeled tracer dipeptide, PEPT1; format: binding, mammalian
T3 construct: expressed in transfected cells; host or cells: transgenic yeast cells
T3 sequence (P46059 1-708): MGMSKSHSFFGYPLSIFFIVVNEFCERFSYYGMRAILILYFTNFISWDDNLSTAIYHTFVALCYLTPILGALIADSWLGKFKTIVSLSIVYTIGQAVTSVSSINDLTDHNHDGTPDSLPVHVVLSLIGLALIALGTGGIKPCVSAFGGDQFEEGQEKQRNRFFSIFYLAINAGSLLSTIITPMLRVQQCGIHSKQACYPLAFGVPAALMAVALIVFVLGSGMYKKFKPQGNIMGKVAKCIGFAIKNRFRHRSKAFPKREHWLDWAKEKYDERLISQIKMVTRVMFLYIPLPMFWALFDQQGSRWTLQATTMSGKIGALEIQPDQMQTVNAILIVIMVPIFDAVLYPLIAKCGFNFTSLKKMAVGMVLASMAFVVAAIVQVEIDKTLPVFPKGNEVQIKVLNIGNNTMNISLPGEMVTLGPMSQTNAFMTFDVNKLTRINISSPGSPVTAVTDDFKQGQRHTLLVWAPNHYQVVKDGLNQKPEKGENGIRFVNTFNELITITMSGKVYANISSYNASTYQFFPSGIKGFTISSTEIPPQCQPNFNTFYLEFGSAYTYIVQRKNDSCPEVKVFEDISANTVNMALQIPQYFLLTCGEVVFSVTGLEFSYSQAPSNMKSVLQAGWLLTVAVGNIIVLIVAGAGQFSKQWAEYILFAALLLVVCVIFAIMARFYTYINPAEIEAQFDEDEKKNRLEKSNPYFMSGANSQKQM
Excerpt: (§2) For the analysis o the interaction of the inhibitors of prolyl-specific proteases with the mammalian peptide transporters two assay systems were used. First, all test compounds were submitted to the competition assay with transgenic yeast cells to determine the dose-dependent displacement (EC50 values) of the radiolabeled tracer dipepitde from the substrate binding site. […] As the level of functional expression varies in oocytes, each test compound was compared in the same oocyte with the current elicited by 5 mM of the dipeptide glycyl-L-glutamine (Gly-Gln). Currents of test compounds are therefore given relative to that by Gly-Gln as %I Gly-Gin, expressed as residual uptake in table 10.

PEPT2 [4] = molecular target: T4, PEPT2 (Homo sapiens, UniProt Q16348); assay: Competition assay with transgenic yeast cells, displacement of radiolabeled tracer dipeptide, PEPT2; format: binding, mammalian
T4 construct: expressed in transfected cells; host or cells: transgenic yeast cells
T4 sequence (Q16348 1-729): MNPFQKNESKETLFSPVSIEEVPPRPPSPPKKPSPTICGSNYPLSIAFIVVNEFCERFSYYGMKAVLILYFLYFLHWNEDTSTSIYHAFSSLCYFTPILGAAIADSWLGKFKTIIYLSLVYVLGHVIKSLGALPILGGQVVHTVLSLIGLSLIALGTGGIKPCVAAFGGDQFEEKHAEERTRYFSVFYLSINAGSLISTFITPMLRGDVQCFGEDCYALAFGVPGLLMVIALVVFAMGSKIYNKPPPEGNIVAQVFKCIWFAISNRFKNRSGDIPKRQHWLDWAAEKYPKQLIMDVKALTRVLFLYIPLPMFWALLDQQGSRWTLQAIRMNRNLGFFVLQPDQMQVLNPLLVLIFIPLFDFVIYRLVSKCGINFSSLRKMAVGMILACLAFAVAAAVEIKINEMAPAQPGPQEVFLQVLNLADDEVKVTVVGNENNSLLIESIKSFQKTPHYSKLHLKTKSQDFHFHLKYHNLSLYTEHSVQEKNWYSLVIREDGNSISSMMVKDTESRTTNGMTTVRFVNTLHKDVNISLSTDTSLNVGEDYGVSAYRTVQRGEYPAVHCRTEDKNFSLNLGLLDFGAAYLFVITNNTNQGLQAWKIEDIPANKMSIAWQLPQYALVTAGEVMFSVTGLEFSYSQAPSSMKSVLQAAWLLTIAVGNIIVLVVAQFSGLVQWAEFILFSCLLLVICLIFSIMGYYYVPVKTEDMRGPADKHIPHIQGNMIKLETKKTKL
Excerpt: as §2

PEPT1 [5] = molecular target: T3, PEPT1; assay: Electrophysiological analysis of transport currents in Xenopus oocytes expressing PEPT1; format: cell-based, mammalian; details: transport current in Xenopus oocytes relative to 5 mM Gly-Gln
Excerpt: as §2

PEPT2 [6] = molecular target: T4, PEPT2; assay: Electrophysiological analysis of transport currents in Xenopus oocytes expressing PEPT2; format: cell-based, mammalian; details: transport current in Xenopus oocytes relative to 5 mM Gly-Gln
Excerpt: as §2

IC50 (purified porcine DP IV [1]): 55.4 µM
Ki (purified porcine DP IV [2]): 22.4 µM
DP IV-AUC0-20 min (plasma DP IV; intravasal 10 mg/kg b.w.): −34±6 mU·min·ml^−1
lowest plasma DP IV activity (plasma DP IV; intravasal 10 mg/kg b.w., at 5 min): 26.2±8.0 mU/ml
DP IV-AUC0-20 min (plasma DP IV; intravasal 30 mg/kg b.w.): −10±10 mU·min·ml^−1
lowest plasma DP IV activity (plasma DP IV; intravasal 30 mg/kg): 21.8±9.8 mU/ml
DP IV-AUC0-20 min (plasma DP IV; intravasal 100 mg/kg b.w.): −54±54 mU·min·ml^−1
plasma DP IV activity at 5 min (plasma DP IV; intravasal 100 mg/kg b.w., p<0.05 vs. 0 min): 10.4±3.2 mU/ml
time after administration at which the initial level of DP IV activity was restored / inhibition stopped (plasma DP IV; intravasal administration): 20 min
inhibition at 100 mg/kg (plasma DP IV; rat, iv, Wistar rats, i.v., 100 mg/kg, read-out: DPIV inhibition at tmax, i.v.): 50%
SMILES: CC(C)C[C@H](NC(=O)[C@@H]1CCCN1C(=O)[C@@H](N)C(C)C)C(=O)O [Diprotin B, Val-Pro-Leu]

SMILES: CC[C@H](C)[C@H](N)C(=O)N1CCC[C@H]1C(=O)N[C@H](C(=O)O)C(C)C [Ile−Pro-Val, Ile-Pro-Val]
IC50 (purified porcine DP IV [1]): 15.2 µM
Ki (purified porcine DP IV [2]): 5.25 µM
EC50 (PEPT1 [3]): 319 ± 40 µM
EC50 (PEPT2 [4]): 172 ± 30 µM
PEPT1 Residual uptake % IGly-Gln (PEPT1 [5]): 65 % IGly-Gln
PEPT2 Residual uptake % IGly-Gln (PEPT2 [6]): 200 % IGly-Gln

IC50 (purified porcine DP IV [1]): 62 µM
Ki (purified porcine DP IV [2]): 14.7 µM
SMILES: CC[C@H](C)[C@H](NC(=O)[C@@H]1CCCN1C(=O)[C@@H](N)Cc1ccccc1)C(=O)O [Phe−Pro-Ile, Phe-Pro-Ile]

IC50 (purified porcine DP IV [1]): 281 µM
SMILES: CC[C@H](C)[C@H](NC(=O)[C@@H]1CCCN1C(=O)[C@@H](N)CO)C(=O)O [Ser-Pro-Ile]

IC50 (purified porcine DP IV [1]): 100 µM
SMILES: CC[C@H](C)[C@H](NC(=O)[C@@H]1CCCN1C(=O)[C@@H](N)[C@@H](C)O)C(=O)O [Thr-Pro-Ile]

IC50 (purified porcine DP IV [1]): 317 µM
SMILES: CC[C@H](C)[C@H](NC(=O)[C@@H]1CCCN1C(=O)[C@@H](N)Cc1c[nH]c2ccccc12)C(=O)O [Trp-Pro-Ile]

IC50 (purified porcine DP IV [1]): 16.4 µM
Ki (purified porcine DP IV [2]): 4.45 µM
SMILES: CC(C)[C@H](N)C(=O)N1CCC[C@H]1C(=O)N[C@H](C(=O)O)C(C)C [Val-Pro-Val]

— patent US20030135023A1, “Peptide structures useful for competitive modulation of dipeptidyl peptidase IV catalysis” (priority 2001, published 2003)
